From patent US20110262447A1 come the findings set out here.

In assay [1] the target is mutant p53 R175H core domain (human) (UniProt P04637). Put plainly: ELISA, R175H core domain heated 30 or 60 min at 37 C with or without 0.4 µM TAR1.
Assay [2] has the same target. In words: ELISA, plates coated with recombinant core domain. For orientation: In an ELISA, binding on a coated surface is turned into a signal by an enzyme label.

Take mAb 1620 (antibody): in assay [1], the fold change of binding in the presence of TAR1 against its absence turned out to be 3 fold. Also, the O.D. in assay [2] is 0.3 O.D.
